Reference: US7122624B2, “Parathyroid hormone receptor ligands” (The United States of America as represented by the …, priority 1999, dated 2006)

By UniProt entry, the sequences of proteins in these tests, tags left out. Residues count along the entry.
UniProt P70555, 25-546: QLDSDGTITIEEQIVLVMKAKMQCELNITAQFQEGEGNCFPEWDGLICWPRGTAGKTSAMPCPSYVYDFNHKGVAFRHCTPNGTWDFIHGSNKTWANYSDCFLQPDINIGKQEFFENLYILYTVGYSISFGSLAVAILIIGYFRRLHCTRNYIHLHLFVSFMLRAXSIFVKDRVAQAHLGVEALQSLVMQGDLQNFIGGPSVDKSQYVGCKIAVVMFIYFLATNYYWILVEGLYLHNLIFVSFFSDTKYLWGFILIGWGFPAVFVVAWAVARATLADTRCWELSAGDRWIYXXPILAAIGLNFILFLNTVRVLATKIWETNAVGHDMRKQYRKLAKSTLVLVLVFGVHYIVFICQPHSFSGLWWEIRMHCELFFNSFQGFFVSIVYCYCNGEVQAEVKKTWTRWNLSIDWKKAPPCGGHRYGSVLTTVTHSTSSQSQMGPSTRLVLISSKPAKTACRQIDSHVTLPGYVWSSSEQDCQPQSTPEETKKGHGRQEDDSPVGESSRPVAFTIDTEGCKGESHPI
UniProt P49190, 25-550: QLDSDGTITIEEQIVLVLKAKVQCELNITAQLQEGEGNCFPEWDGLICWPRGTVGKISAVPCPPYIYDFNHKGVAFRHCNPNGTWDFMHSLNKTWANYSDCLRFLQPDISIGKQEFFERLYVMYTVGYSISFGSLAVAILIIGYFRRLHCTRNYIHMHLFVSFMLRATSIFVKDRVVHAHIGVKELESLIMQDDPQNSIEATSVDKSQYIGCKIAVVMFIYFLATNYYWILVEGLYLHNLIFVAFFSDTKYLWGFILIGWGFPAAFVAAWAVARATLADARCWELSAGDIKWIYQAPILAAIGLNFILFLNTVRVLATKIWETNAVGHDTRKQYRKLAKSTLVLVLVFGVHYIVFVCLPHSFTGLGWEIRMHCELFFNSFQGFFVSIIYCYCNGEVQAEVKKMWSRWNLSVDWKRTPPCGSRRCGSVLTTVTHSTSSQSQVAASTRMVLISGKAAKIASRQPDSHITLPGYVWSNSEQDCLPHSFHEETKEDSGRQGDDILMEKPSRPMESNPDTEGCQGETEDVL

What was measured:
rat PTH2 receptor = biological target: T1, rat PTH2 receptor (Rattus norvegicus, UniProt P70555); assay: cAMP accumulation in COS-7 cells transiently expressing the rat PTH2 receptor; type: cell-based; settings: activation of adenylyl cyclase, figures in brackets
T1 construct: expressed in transfected cells; host or cells: COS-7 (transient)

PTH2 receptor = PTH2 receptor (Homo sapiens, UniProt P49190); assay: cAMP accumulation in COS-7 cells transiently expressing the human PTH2 receptor; type: cell-based; design: expressed in transfected cells; host or cells: COS-7 (transient); settings: activation of adenylyl cyclase

Substance: hPTH(1-34)
- EC50 (rat PTH2 receptor): 140 nM
- −logEC50 (PTH2 receptor; mean ± s.e.m. of three or four experiments): 8.95 ± 0.09

Substance: hPTH(1-84)
- EC50 (PTH2 receptor; figures in brackets): 5.5 nM
